Assays:
[1] = target: PKC α (Homo sapiens, UniProt P17252); assay: PKC enzyme assay (BIOTRAK Protein kinase C enzyme assay system, 32P-ATP phosphorylation of peptide […]); assay type: biochemical; settings: read-out: Inhibition of PKC activity IC50 PKC α, Human Recombinant, test substance 1 nM-10 µM, 37°C, 15 minutes
[2] = target: PKC β II (Homo sapiens, UniProt P05771); assay: as above; assay type: biochemical; settings: for Ratio α/β: IC50 PKC α / IC50 PKC β II; for IC50: read-out: Inhibition of PKC activity IC50 PKC β II, Protein Kinase C, Human Recombinant, test substance 1 nM-10 µM, 37°C, 15 minutes

Sequences of proteins named here, by UniProt entry; tags and fusion partners are left off. Residues count along the entry.
UniProt P05771, 1-673 isoform 2: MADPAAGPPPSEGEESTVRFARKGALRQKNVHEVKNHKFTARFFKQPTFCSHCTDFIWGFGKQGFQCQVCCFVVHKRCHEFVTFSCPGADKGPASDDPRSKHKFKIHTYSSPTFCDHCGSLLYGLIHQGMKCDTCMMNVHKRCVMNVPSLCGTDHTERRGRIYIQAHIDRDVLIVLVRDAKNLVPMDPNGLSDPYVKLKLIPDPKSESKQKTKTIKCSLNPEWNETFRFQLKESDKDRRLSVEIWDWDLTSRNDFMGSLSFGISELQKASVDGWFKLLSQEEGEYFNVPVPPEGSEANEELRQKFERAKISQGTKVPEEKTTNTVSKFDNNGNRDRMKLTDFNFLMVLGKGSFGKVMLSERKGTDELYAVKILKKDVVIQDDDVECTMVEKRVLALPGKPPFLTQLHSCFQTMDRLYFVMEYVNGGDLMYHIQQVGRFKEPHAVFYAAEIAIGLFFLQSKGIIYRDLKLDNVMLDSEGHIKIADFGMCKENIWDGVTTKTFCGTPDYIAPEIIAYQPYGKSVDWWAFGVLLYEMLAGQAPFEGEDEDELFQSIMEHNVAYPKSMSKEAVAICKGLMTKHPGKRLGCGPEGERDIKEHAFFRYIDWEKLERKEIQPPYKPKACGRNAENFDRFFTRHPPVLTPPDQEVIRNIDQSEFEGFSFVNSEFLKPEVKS

Row | IC50 [1] [nM] | Ratio α/β [2] | IC50 [2] [nM] | SMILES
1 | 355 | 118 | 3 | O=C1NC(=O)C(c2c3n(c4ccccc24)CC(CN2CCCC2)CC3)=C1Nc1ccccc1 (stereo not shown)
2 | 113 | 33 | 3 | CCNCC1CCc2c(C3=C(Nc4ccccc4)C(=O)NC3=O)c3ccccc3n2C1 (stereo not shown)
3 | 910 | 114 | 8 | CCN(CC)C[C@H]1CCn2c(c(C3=C(Nc4ccccc4)C(=O)NC3=O)c3ccccc32)C1
4 | 96 | 48 |  | CN(C)C[C@H]1CCn2c(c(C3=C(Nc4ccccc4)C(=O)NC3=O)c3ccccc32)C1
5 | 1450 | 97 | 15 | O=C1NC(=O)C(c2c3n(c4ccccc24)CC[C@H](CO)C3)=C1Nc1ccc(F)cc1
6 | 725 |  | 9 | O=C1NC(=O)C(c2c3n(c4ccccc24)CC[C@H](Cn2ccnc2)C3)=C1Nc1ccccc1
7 | 265 | 53 | 5 | O=C1NC(=O)C(c2c3n(c4ccccc24)CC[C@H](CN2CCC(O)CC2)C3)=C1Nc1ccccc1
8 | 4000 | 174 | 23 | O=C1NC(=O)C(c2c3n(c4ccccc24)CCCC(CO)C3)=C1Nc1ccccc1 (stereo not shown)
9 | 91 | 43 | 2 | CNCC1CCc2c(C3=C(Nc4ccccc4)C(=O)NC3=O)c3ccccc3n2C1 (stereo not shown)
10 | 275 | 69 | 4 | O=C1NC(=O)C(c2c3n(c4ccccc24)CC[C@H](CN2CCCCC2)C3)=C1Nc1ccccc1
11 | 2130 | 125 |  | O=C1NC(=O)C(c2c3n(c4ccccc24)CC[C@@H](CO)C3)=C1Nc1ccccc1
12 | 170 | 57 | 3 | O=C1NC(=O)C(c2c3n(c4ccccc24)CC[C@H](CN2CCCC2)C3)=C1Nc1ccccc1
13 | 247 | 62 | 4 | NC(=O)C1CCN(C[C@H]2CCn3c(c(C4=C(Nc5ccccc5)C(=O)NC4=O)c4ccccc43)C2)CC1
14 | 795 | 72 | 11 | O=C1NC(=O)C(c2c3n(c4ccccc24)CC(CN2CCCCC2)C3)=C1Nc1ccccc1 (stereo not shown)
15 | 1220 | 77 | 16 | NC(=O)C1CCN(CC2Cc3c(C4=C(Nc5ccccc5)C(=O)NC4=O)c4ccccc4n3C2)CC1 (stereo not shown)
16 | 1930 | 138 | 14 | O=C1NC(=O)C(c2c3n(c4ccccc24)CC(CN2CCSCC2)CC3)=C1Nc1ccccc1 (stereo not shown)
17 | 2600 | 113 | 23 | CN1CCN(CC2CCc3c(C4=C(Nc5ccccc5)C(=O)NC4=O)c4ccccc4n3C2)CC1 (stereo not shown)
18 | 3060 | 122 |  | CN(C)C[C@@H]1CCn2c(c(C3=C(Nc4ccccc4)C(=O)NC3=O)c3ccccc32)C1
19 | 394 | 66 |  | O=C1NC(=O)C(c2c3n(c4ccccc24)CC[C@H](CO)C3)=C1Nc1ccccc1
20 | 2100 | 84 | 25 | O=C1NC(=O)C(c2c3n(c4ccccc24)CC[C@H](CO)C3)=C1Nc1ccc(O)cc1
21 | 497 | 83 | 6 | O=C1NC(=O)C(c2c3n(c4ccccc24)CC(CN2CCC(O)CC2)CC3)=C1Nc1ccccc1 (stereo not shown)
22 | > 10000 | 147 | 68 | CN(C)CC1CCCn2c(c(C3=C(Nc4ccccc4)C(=O)NC3=O)c3ccccc32)C1 (stereo not shown)
23 | 5740 | 103 | 56 | O=C1NC(=O)C(c2c3n(c4ccccc24)CC(Cn2cccn2)CC3)=C1Nc1ccccc1 (stereo not shown)
24 | 680 | 49 | 14 | O=C1NC(=O)C(c2c3n(c4ccccc24)CC[C@H](CO)C3)=C1Nc1cccc(F)c1
25 | 1910 | 83 | 23 | O=C1NC(=O)C(c2c3n(c4ccccc24)CC[C@H](CO)C3)=C1Nc1cccc(Cl)c1

Reference: EP1120414A1, “DISUBSTITUTED MALEIMIDE COMPOUNDS AND MEDICINAL UTILIZATION THEREOF” (Japan Tobacco Inc., priority 1998, dated 2000)
